US20060094649A1, “Hla-a1,-a2,-a3,-a24,-b7, and-b44 tumor associated antigen peptides and compositions” (priority 2002, published 2006)

test system: HLA-B44 supertype molecules; assay: HLA-B44 supertype cross-binding; parameters: species or system human; conditions: number of the six B44 supertype alleles bound

SMILES | Degeneracy
CC(C)C[C@H](NC(=O)[C@H](CC(C)C)NC(=O)[C@H](Cc1ccccc1)NC(=O)[C@H](Cc1c[nH]cn1)NC(=O)[C@@H](NC(=O)[C@H](CC(C)C)NC(=O)[C@H](CCC(=O)O)NC(=O)[C@H](C)N)C(C)C)C(=O)O | 5
CC(C)C[C@H](NC(=O)[C@H](CC(C)C)NC(=O)[C@H](CC(C)C)NC(=O)[C@H](Cc1ccccc1)NC(=O)[C@H](Cc1c[nH]cn1)NC(=O)[C@@H](NC(=O)[C@H](CC(C)C)NC(=O)[C@H](CCC(=O)O)NC(=O)[C@H](C)N)C(C)C)C(=O)O | 6
CC(C)C[C@H](NC(=O)[C@H](CC(C)C)NC(=O)[C@H](CC(C)C)NC(=O)[C@H](Cc1ccccc1)NC(=O)[C@H](Cc1c[nH]cn1)NC(=O)[C@@H](NC(=O)[C@H](CC(C)C)NC(=O)[C@H](CCC(=O)O)NC(=O)[C@H](C)N)C(C)C)C(=O)N[C@@H](CCCCN)C(=O)N[C@@H](Cc1ccc(O)cc1)C(=O)O | 5
CSCC[C@H](NC(=O)[C@H](CCC(=O)O)NC(=O)[C@H](C)N)C(=O)N[C@@H](CC(C)C)C(=O)NCC(=O)N[C@@H](CO)C(=O)N[C@H](C(=O)N[C@H](C(=O)NCC(=O)O)C(C)C)C(C)C | 5
CC(C)C[C@H](NC(=O)[C@H](Cc1ccc(O)cc1)NC(=O)[C@@H](NC(=O)[C@@H](NC(=O)[C@H](CC(N)=O)NC(=O)[C@H](CCC(N)=O)NC(=O)[C@H](C)NC(=O)[C@H](CCC(=O)O)NC(=O)[C@@H]1CCCN1C(=O)[C@H](CCC(=O)O)NC(=O)[C@@H](N)CS)[C@@H](C)O)[C@@H](C)O)C(=O)O | 1
C[C@@H](O)[C@H](NC(=O)[C@H](CO)NC(=O)[C@@H]1CCCN1C(=O)CNC(=O)[C@H](CCC(=O)O)NC(=O)[C@H](CCC(=O)O)NC(=O)[C@@H](N)CCC(=O)O)C(=O)N[C@@H](Cc1ccccc1)C(=O)O | 3
CC(C)C[C@H](NC(=O)[C@H](CC(=O)O)NC(=O)[C@@H]1CCCN1C(=O)[C@H](Cc1ccccc1)NC(=O)[C@@H](NC(=O)[C@H](CO)NC(=O)[C@@H]1CCCN1C(=O)CNC(=O)[C@H](CCC(=O)O)NC(=O)[C@H](CCC(=O)O)NC(=O)[C@@H](N)CCC(=O)O)[C@@H](C)O)C(=O)O | 3
CC(C)C[C@H](NC(=O)[C@H](CC(=O)O)NC(=O)[C@@H]1CCCN1C(=O)[C@H](Cc1ccccc1)NC(=O)[C@@H](NC(=O)[C@H](CO)NC(=O)[C@@H]1CCCN1C(=O)CNC(=O)[C@H](CCC(=O)O)NC(=O)[C@@H](N)CCC(=O)O)[C@@H](C)O)C(=O)O | 4
CC[C@H](C)[C@H](NC(=O)[C@H](CCCCN)NC(=O)[C@H](CCC(=O)O)NC(=O)[C@@H](N)CCC(=O)O)C(=O)N[C@@H](Cc1c[nH]c2ccccc12)C(=O)N[C@@H](CCC(=O)O)C(=O)N[C@@H](CCC(=O)O)C(=O)N[C@@H](CC(C)C)C(=O)N[C@@H](CO)C(=O)N[C@H](C(=O)N[C@@H](CC(C)C)C(=O)O)C(C)C | 4
CC(C)C[C@H](NC(=O)[C@H](CCC(=O)O)NC(=O)[C@@H](N)CCC(=O)O)C(=O)N[C@@H](CO)C(=O)N[C@H](C(=O)N[C@@H](CC(C)C)C(=O)N[C@@H](CCC(=O)O)C(=O)N[C@H](C(=O)N[C@@H](Cc1ccccc1)C(=O)O)C(C)C)C(C)C | 4
CC[C@H](C)[C@H](N)C(=O)N[C@@H](CCC(=O)O)C(=O)N[C@@H](CC(C)C)C(=O)N[C@@H](CCSC)C(=O)N[C@@H](CCC(=O)O)C(=O)N[C@H](C(=O)N[C@@H](CC(=O)O)C(=O)N1CCC[C@H]1C(=O)N[C@H](C(=O)O)[C@@H](C)CC)C(C)C | 4
CC[C@H](C)[C@H](NC(=O)[C@H](Cc1ccc(O)cc1)NC(=O)[C@H](CC(C)C)NC(=O)[C@H](Cc1c[nH]cn1)NC(=O)CNC(=O)[C@@H](NC(=O)[C@@H]1CCCN1C(=O)[C@H](CC(=O)O)NC(=O)[C@@H](NC(=O)[C@H](CCC(=O)O)NC(=O)[C@@H](N)CCSC)C(C)C)[C@@H](C)CC)C(=O)O | 6
CC[C@H](C)[C@H](NC(=O)[C@H](CC(N)=O)NC(=O)[C@@H]1CCCN1C(=O)[C@@H](NC(=O)[C@H](Cc1ccccc1)NC(=O)[C@H](CC(C)C)NC(=O)[C@H](CCC(=O)O)NC(=O)[C@@H](N)CCC(N)=O)[C@@H](C)CC)C(=O)N[C@H](C(=O)N[C@H](C(=O)O)C(C)C)[C@@H](C)O | 6
